## Binding of CDR-mutated scFvs to a peptide of the spike HR2 region

From the AlphaSeq antibody data of Li et al. 2023 (doi:10.1038/s41467-023-39022-2), copy in the FLAb collection.

All variants were tested on one target, the spike HR2 peptide PDVDLGDISGINAS (SARS-CoV-2).

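The parent was found by panning a naive human phage display library on the peptide. These sequences belong to a second round, designed from the earlier measurements on random variants of the parent. Group labels follow the data file (En: ensemble of fine-tuned language models; GP: Gaussian process model; HC: hill climbing; Gen: genetic algorithm; Gibbs: Gibbs sampling; a sequence that several methods proposed may carry one label only). Affinity was read by AlphaSeq, a pooled yeast mating assay with surface-displayed partners. Binding brings cells together so that they mate, and sequencing counts the barcode pairs among the diploids. The ratio of observed to expected reads was calibrated, replicate by replicate, on BCL2-family standards whose Kd was known from biolayer interferometry. There are six technical replicates.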

Parent: Ab-14, a human scFv built as VH, a 15-residue (Gly4Ser)3 linker, VL. Only the CDRs of the light chain vary.
VH: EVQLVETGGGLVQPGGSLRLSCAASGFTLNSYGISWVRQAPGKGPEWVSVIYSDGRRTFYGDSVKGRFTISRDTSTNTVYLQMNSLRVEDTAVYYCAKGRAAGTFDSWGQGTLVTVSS
VL: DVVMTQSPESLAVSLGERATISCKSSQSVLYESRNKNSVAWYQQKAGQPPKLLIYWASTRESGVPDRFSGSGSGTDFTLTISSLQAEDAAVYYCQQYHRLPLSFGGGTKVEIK

Variants are written as CDR1, CDR2 and CDR3 of the light chain (limits as in the source). Parent: KSSQSVLYESRNKNSVA, WASTRES, QQYHRLPLS. Variants here have more than six changes. Affinities are written as log10 Kd with Kd in nM; a lower number is a better binder. The mean shown is taken over the replicates in which the pair was detected. A pair that was not seen in that replicate is written "ND"; this usually means weak binding, but a binder can also be missed.

KLMCSQEYESRNTNSVA / NASTRES / QQYHRLPLS [GP_Gibbs]: 1.09, 0.86, 0.76, 0.81, 0.84, 1.01 (mean 0.89; controls 0 of 18).
KLTHPTDLWLNHASSIA / DANISVE / QQYYWLPLT [En_Gibbs]: 0.87, 1.06, 0.81, 0.87, 1.02, 1.25 (mean 0.98; controls 0 of 18).
KLMGEMDYESRNKNSVA / HASERES / QQYHRLPLQ [GP_Gibbs]: 0.16, 0.59, -0.24, -0.12, -0.30, 0.05 (mean 0.02; controls 2 of 18).
HISEMMYYQSRNKNNIA / EMSTRER / QHYHRLPLS [En_HC]: 0.67, 0.33, -0.44, 0.91, -0.24, -0.27 (mean 0.16; controls 2 of 18).
QLYAVQDMTSKNKNSVA / EQSTREN / QQYHRLPLS [En_HC]: 1.72, 1.13, 0.80, 0.86, 1.03, 1.36 (mean 1.15; controls 2 of 18).
KYPQSEGYESRNQNSVA / AASQREE / QQYHRLPLS [GP_Gibbs]: 0.71, 1.01, 0.84, 0.83, 0.87, 0.94 (mean 0.87; controls 0 of 18).
KLDFLGPYEQRNKNSVA / SASYRES / QQYHRLPLS [GP_Gibbs]: 0.00, -0.55, -0.06, -0.29, -0.01, -0.11 (mean -0.17; controls 0 of 18).
KISQMARVGSTKQNSIA / EEATRCD / QQYHRLPLA [En_Gen]: 1.14, 0.91, 0.91, 1.17, 1.07, 1.26 (mean 1.08; controls 3 of 18).
KIHQSDLYEDRNINSVA / SASQRES / QQYHRLPLS [GP_Gibbs]: 0.15, 0.08, -0.13, -0.26, -0.22, 0.08 (mean -0.05; controls 1 of 18).
IVSQLMLWGMHAKNSIA / EAEQRLN / QQYERLPLF [En_Gen]: 1.68, 1.14, 1.94, 0.96, 2.54, 1.97 (mean 1.70; controls 0 of 18).
KSSQAWWYESRNKWSVA / NASLREQ / QQYHRLPLS [GP_Gibbs]: -0.52, -0.52, -0.36, -0.53, -0.74, -0.66 (mean -0.55; controls 1 of 18).
MISQLYNMGTFAINSVA / QASQRNE / QQYDRLPLM [En_Gen]: 0.31, 0.21, 0.67, 0.41, 0.82, 0.36 (mean 0.46; controls 2 of 18).
KLGDMVHTEVRNKNSIA / DMRTREQ / QQYYRLPLS [En_HC]: -0.23, -0.23, -0.24, -0.40, -0.63, 0.05 (mean -0.28; controls 0 of 18).
VISMFELQGTGWAQNIA / QASHRTE / QQFSRLPLV [En_Gibbs]: ND, ND, ND, ND, ND, 1.46 (controls 0 of 18).
KISYMGAHFSTNHSAIA / QASTREQ / QQYHRLPIS [En_HC]: 2.19, 1.33, 2.43, 1.53, 1.79, 1.90 (mean 1.86; controls 1 of 18).
TLSDLMYMESRNYNSVA / DLVERES / QQYHRLPLS [En_HC]: 0.48, 1.11, 0.39, 1.58, 0.87, 1.12 (mean 0.92; controls 2 of 18).
NMGGTKEEQSNEIGNIA / EMNERFA / QQYFQLPLS [En_Gibbs]: 2.40, 1.27, 1.70, 1.16, 3.29, 2.27 (mean 2.01; controls 1 of 18).
KLYNMTGIESHAKNSLA / DANRRED / QQYHRLPLS [En_HC]: 0.31, 0.17, -0.12, -0.01, -0.04, 0.23 (mean 0.09; controls 0 of 18).
NISIEDYSEHNNANNVA / STDCRCD / QQYFMLPLM [En_Gibbs]: 0.69, 0.29, 0.41, 0.04, 0.83, 0.61 (mean 0.48; controls 0 of 18).
KLSMITGHLQQSKNNVA / EMVTREN / QQYNRLPLA [En_Gen]: 0.01, -0.07, 0.52, 0.02, -0.10, 0.47 (mean 0.14; controls 2 of 18).
KCDQSWDYESRNKNNVA / NASQRES / QQYHRLPLS [GP_Gibbs]: 0.03, -0.10, -0.32, -0.28, -0.47, -0.19 (mean -0.22; controls 0 of 18).
KISGMYQKESKNKNSVA / EMVNRAS / QQYDRLPLS [En_HC]: 0.76, 0.76, 0.98, 0.52, 0.94, 1.01 (mean 0.83; controls 0 of 18).
KLGMTLNQLMRKKNNVA / DLVERET / QQYFRLPLS [En_Gen]: 0.44, 0.09, -0.01, 0.22, 0.13, 0.35 (mean 0.20; controls 0 of 18).
MMSMGSLGGMRAKNNVA / QEETREK / QQYHRLPLI [En_HC]: 0.99, 0.60, 0.38, 0.34, 1.45, 0.66 (mean 0.74; controls 1 of 18).
QMGYALFHEDAKKKSIA / ENDVRVY / QQYAKLPLT [En_Gibbs]: 0.89, 1.08, 0.97, 0.56, 0.90, 0.82 (mean 0.87; controls 1 of 18).
KLSMTHQMESVNRNSVA / ELVTRMS / QQYNRLPLS [En_Gen]: 0.10, 0.57, 0.50, 0.06, 0.09, 0.06 (mean 0.23; controls 0 of 18).
KITATMRFEQKASNNIA / EVEQRTK / QQYYRLPLS [En_Gen]: 0.82, 0.92, 0.72, 0.74, 0.82, 0.86 (mean 0.81; controls 0 of 18).
HVAQTRQEDISNKKNVA / EGSVVID / QQYSKLPFS [En_Gibbs]: 0.02, 0.31, 0.39, 0.11, 0.08, 0.35 (mean 0.21; controls 1 of 18).
KSSQSYDYGDRNSNSVA / NASQREH / QQYHRLPLS [GP_Gibbs]: 0.37, 0.48, 0.16, 0.13, -0.03, 0.41 (mean 0.25; controls 2 of 18).
MYSQSYLGEQRNANSVA / NASTREE / QQYHRLPLS [GP_Gibbs]: -0.26, -0.87, -0.63, -0.26, -0.43, -0.68 (mean -0.52; controls 1 of 18).
KLSQNVLFFGHAINSVA / EMETREN / QQYDRLPLS [En_HC]: 0.98, 0.72, 1.43, 0.42, 0.73, 0.85 (mean 0.85; controls 3 of 18).
KLEISVMQWERNKNSVA / NASTREV / QQYHRLPLS [GP_Gibbs]: 0.62, 0.97, 1.20, 0.93, 1.15, 1.05 (mean 0.99; controls 1 of 18).
KQSMSVMMGDRNKNSVA / SAHKRMS / QQYHRLPLS [GP_Gibbs]: 2.58, 3.10, 1.79, 1.99, 2.31, 2.87 (mean 2.44; controls 0 of 18).
KLSGIMRMESKVSNSIA / EVNERPE / QQYDRLPLS [En_Gen]: 1.11, 1.05, 0.87, 1.23, 1.07, 1.10 (mean 1.07; controls 0 of 18).
KLGNMTGIESHNKNSLA / DANRRES / QQYHRLPLS [En_HC]: 0.77, 0.37, 0.14, 0.14, 0.45, 0.53 (mean 0.40; controls 0 of 18).
MMSQVWGMGQRHRNNVA / QTSTREE / QQYDHLPLI [En_Gen]: 0.94, 0.83, 1.24, 1.14, 1.14, 1.04 (mean 1.05; controls 1 of 18).
KIGMTLNQLMHQKQNVA / DLVMREN / QQYHRLPLS [En_Gen]: 0.27, 0.62, 0.23, 0.13, -0.13, 0.00 (mean 0.19; controls 2 of 18).
QLQQVQQGDTISEYSVA / HAEVSGR / QQYSQLPLI [En_Gibbs]: ND, ND, ND, ND, ND, ND (controls 0 of 18).
KLSQLGLYGQRNKMSVA / DASQRED / QQYHRLPLS [GP_Gibbs]: -0.32, -0.33, -0.33, -0.61, -0.49, -0.13 (mean -0.37; controls 0 of 18).
KVSQGELYESRNANNVA / NASQREN / QQYHRLPLS [GP_Gibbs]: -0.86, -0.54, -0.57, -0.91, -0.72, -0.53 (mean -0.69; controls 0 of 18).

For reference, 6 entries of the list once more:

With KQSMSVMMGDRNKNSVA / SAHKRMS / QQYHRLPLS [GP_Gibbs] the result was 2.58, 3.10, 1.79, 1.99, 2.31, 2.87 (mean 2.44; controls 0 of 18).
With KISQMARVGSTKQNSIA / EEATRCD / QQYHRLPLA [En_Gen] the result was 1.14, 0.91, 0.91, 1.17, 1.07, 1.26 (mean 1.08; controls 3 of 18).
With KLYNMTGIESHAKNSLA / DANRRED / QQYHRLPLS [En_HC] the result was 0.31, 0.17, -0.12, -0.01, -0.04, 0.23 (mean 0.09; controls 0 of 18).
With KLGNMTGIESHNKNSLA / DANRRES / QQYHRLPLS [En_HC] the result was 0.77, 0.37, 0.14, 0.14, 0.45, 0.53 (mean 0.40; controls 0 of 18).
With KLDFLGPYEQRNKNSVA / SASYRES / QQYHRLPLS [GP_Gibbs] the result was 0.00, -0.55, -0.06, -0.29, -0.01, -0.11 (mean -0.17; controls 0 of 18).
With KLSQNVLFFGHAINSVA / EMETREN / QQYDRLPLS [En_HC] the result was 0.98, 0.72, 1.43, 0.42, 0.73, 0.85 (mean 0.85; controls 3 of 18).

The range of this assay differs from that of the first round, and the authors advise against merging the two. In the paper, a design with two or fewer of six values counts as a poor binder. The parent sequence was in this pool as ten entries: three were never detected, three once, and four in most replicates, with averages from 0.34 to 2.37. Background: pairings of all light chain designs with three empty control strains gave a value in 4% of cases (median 2.64, 5th percentile 1.59). Values in that range, when seen in few replicates, are hard to tell from nonspecific mating. Also given: how often the same scFv was detected with the empty control strains.